Each structure is given as a SMILES string. Where a name gives a salt, the structure may show the parent alone. Read-outs that look alike come from different tables or passages of the source.

The target in the experiment is T1, ζ-opioid receptor (Homo sapiens, UniProt Q9NZT2).
T1 sequence (Q9NZT2 1-677): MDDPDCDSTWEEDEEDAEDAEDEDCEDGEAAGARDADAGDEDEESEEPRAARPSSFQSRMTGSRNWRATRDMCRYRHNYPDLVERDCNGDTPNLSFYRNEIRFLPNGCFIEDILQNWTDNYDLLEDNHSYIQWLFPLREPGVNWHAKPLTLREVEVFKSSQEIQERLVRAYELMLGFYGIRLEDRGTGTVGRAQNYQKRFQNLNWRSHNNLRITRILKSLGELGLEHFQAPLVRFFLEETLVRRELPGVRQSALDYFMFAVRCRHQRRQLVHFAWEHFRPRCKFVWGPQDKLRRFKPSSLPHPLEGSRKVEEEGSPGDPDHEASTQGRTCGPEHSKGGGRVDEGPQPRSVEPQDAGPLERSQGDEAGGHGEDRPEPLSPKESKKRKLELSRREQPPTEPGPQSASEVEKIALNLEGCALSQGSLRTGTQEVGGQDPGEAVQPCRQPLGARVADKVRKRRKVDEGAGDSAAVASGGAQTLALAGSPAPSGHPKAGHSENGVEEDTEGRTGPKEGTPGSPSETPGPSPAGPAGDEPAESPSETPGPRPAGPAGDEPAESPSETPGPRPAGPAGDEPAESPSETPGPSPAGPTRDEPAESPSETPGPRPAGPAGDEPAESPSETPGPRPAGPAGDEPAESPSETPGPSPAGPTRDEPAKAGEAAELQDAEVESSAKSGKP
Kind of experiment: Competition for binding of [3H][Met5]enkephalin (4.0 nM) in nuclear homogenates of HT-29 human colon tumors. Set-up: from tissue; host or cells: HT-29 human colon tumor xenografts grown in athymic nude mice; nuclear (P1) and other subcellular fractions.

For the compound `C=CCN1CC[C@]23c4c5ccc(O)c4O[C@H]2C(=O)CC[C@@]3(O)[C@H]1C5` [naloxone], the IC50 (4.0 nM [3H][Met5]enkephalin) was determined as 115 ± 5 nM. Moreover, the inhibitory constant (Ki) (calculated from IC50 by Cheng and Prusoff) was 88.5 ± 3.9 nM. For the same compound, the “more potent than (+)-naloxone in displacing [3H]-[Met5]-enkephalin” value (stereoisomers) is listed as 100,000 fold.

`C=CCN1CC[C@@]23c4c5ccc(O)c4O[C@@H]2C(=O)CC[C@]3(O)[C@@H]1C5` [(+)-Naloxone hydrochloride, (+)-naloxone hydrochloride]: the IC50 is more than 10000 nM and the inhibition constant Ki is more than 10000 nM.

The IC50 is the concentration needed to halve the response being measured. By Ki is commonly meant a dissociation constant, usually derived from enzyme kinetics or from competition with a known ligand.

(Values after patent US6737397B1, “Control of cancer growth through the interaction of [MET5]-enkephalin and the zeta receptor” (The Penn State Research Foundation, priority 1996, dated 2004).)
